# Measured affinities in a library of Ab-95 light chain variants

Data: MIT Lincoln Laboratory AlphaSeq set, Engelhart et al. 2022, doi:10.1038/s41597-022-01779-4, as distributed in FLAb.

Binding partner: SARS-CoV-2 spike HR2 peptide, sequence PDVDLGDISGINAS.

Parent: Ab-95, a human scFv built as VH, three GGGGS repeats, VL. Only the CDRs of the light chain vary.
VH: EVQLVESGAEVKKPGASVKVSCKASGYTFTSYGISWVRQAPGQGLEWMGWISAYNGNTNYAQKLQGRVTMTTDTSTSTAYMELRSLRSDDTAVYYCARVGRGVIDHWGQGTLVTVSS
VL: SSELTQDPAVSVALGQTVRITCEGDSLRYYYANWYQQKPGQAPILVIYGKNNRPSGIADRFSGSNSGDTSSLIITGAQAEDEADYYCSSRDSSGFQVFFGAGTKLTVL

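Phage display of a naive human antibody library on the peptide gave the parent. Variants in AAYL52 differ from the parent at up to three CDR positions; double and triple changes were sampled at random. AlphaSeq pools MATa yeast showing the antibodies with MATalpha yeast showing the peptide. Binding brings cells together so that they mate, and sequencing counts the barcode pairs among the diploids. Read counts were normalised to the haploid input and turned into Kd by a linear fit to BCL2-family pairs of known affinity, for each replicate. There are three technical replicates.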

Changes read parent residue, position, new residue, counted from the first residue of the VL shown.
Numbers give log10(Kd / nM), so 0 is 1 nM and 3 is 1 µM. Smaller is tighter.
A mean of the replicates is given; it leaves out those without a signal.
An entry "n.d." has no value in the source: the pair was not observed among the diploids in that replicate. This suggests poor binding but is not conclusive.
Background: pairings of library AAYL52 with three empty control strains gave a value in 28% of cases (median 3.91, 5th percentile 2.90). Values in that range, when seen in few replicates, are hard to tell from nonspecific mating. The control count says in how many pairings with the empty strains this scFv gave a signal, with their mean in brackets.
Parent in this assay: reference entry 2.31, copy in this library 2.25.

{"changes": "Y30R+P54Q+R90C", "replicates, log10 nM": "3.14 / 2.63 / 2.09", "mean log10 Kd (nM)": "2.62", "empty controls": "4/9 (3.90)"}
{"changes": "Y31R+A32T+N52W", "replicates, log10 nM": "3.44 / 3.72 / 2.71", "mean log10 Kd (nM)": "3.29", "empty controls": "1/9 (3.00)"}
{"changes": "N51L+S55N", "replicates, log10 nM": "3.08 / 3.05 / 2.89", "mean log10 Kd (nM)": "3.01", "empty controls": "0/9"}
{"changes": "R28H+Y30T+S89P", "replicates, log10 nM": "4.87 / 4.31 / 4.40", "mean log10 Kd (nM)": "4.53", "empty controls": "4/9 (4.00)"}
{"changes": "Y29I+P54V+Q96M", "replicates, log10 nM": "3.55 / n.d. / 3.00", "mean log10 Kd (nM)": "3.28", "empty controls": "0/9"}
{"changes": "Y30G+N51A+S92V", "replicates, log10 nM": "1.23 / 1.17 / 0.62", "mean log10 Kd (nM)": "1.01", "empty controls": "1/9 (5.11)"}
{"changes": "K50N+F95K", "replicates, log10 nM": "3.30 / 2.40 / 1.90", "mean log10 Kd (nM)": "2.53", "empty controls": "0/9"}
{"changes": "Y29Q+K50F+R53N", "replicates, log10 nM": "n.d. / n.d. / n.d.", "mean log10 Kd (nM)": "n.d.", "empty controls": "1/9 (5.34)"}
{"changes": "A32N+S89N+V97I", "replicates, log10 nM": "5.29 / n.d. / n.d.", "mean log10 Kd (nM)": "5.29", "empty controls": "2/9 (2.92)"}
{"changes": "P54I+S89M+V97D", "replicates, log10 nM": "n.d. / 2.59 / 3.51", "mean log10 Kd (nM)": "3.05", "empty controls": "1/9 (3.68)"}
{"changes": "E23A+K50T+F95G", "replicates, log10 nM": "4.16 / 3.08 / 3.41", "mean log10 Kd (nM)": "3.55", "empty controls": "4/9 (4.17)"}
{"changes": "G49E+R53L", "replicates, log10 nM": "n.d. / n.d. / n.d.", "mean log10 Kd (nM)": "n.d.", "empty controls": "2/9 (3.90)"}
{"changes": "Y31P+S88V+Q96M", "replicates, log10 nM": "1.56 / 1.20 / 1.19", "mean log10 Kd (nM)": "1.32", "empty controls": "4/9 (4.59)"}
{"changes": "E23D+R28G+N51M", "replicates, log10 nM": "n.d. / 5.44 / 4.16", "mean log10 Kd (nM)": "4.80", "empty controls": "4/9 (3.58)"}
{"changes": "Y29A+N51F", "replicates, log10 nM": "3.77 / 4.03 / 3.40", "mean log10 Kd (nM)": "3.73", "empty controls": "2/9 (4.69)"}
{"changes": "S26N+Y31C+G49H", "replicates, log10 nM": "n.d. / n.d. / n.d.", "mean log10 Kd (nM)": "n.d.", "empty controls": "1/9 (3.50)"}
{"changes": "L27W+Y31C+S55T", "replicates, log10 nM": "3.59 / 2.83 / 2.39", "mean log10 Kd (nM)": "2.94", "empty controls": "5/9 (4.35)"}
{"changes": "D25W+S26N+Y29G", "replicates, log10 nM": "2.47 / 2.80 / 2.41", "mean log10 Kd (nM)": "2.56", "empty controls": "2/9 (4.44)"}
{"changes": "N51E+R90S+S93V", "replicates, log10 nM": "n.d. / n.d. / n.d.", "mean log10 Kd (nM)": "n.d.", "empty controls": "0/9"}
{"changes": "Y30M+S89H+F95I", "replicates, log10 nM": "1.30 / 1.83 / 0.81", "mean log10 Kd (nM)": "1.31", "empty controls": "2/9 (4.77)"}
{"changes": "F98E", "replicates, log10 nM": "2.10 / 1.98 / 1.93", "mean log10 Kd (nM)": "2.00", "empty controls": "3/9 (4.01)"}
{"changes": "G24S+L27M+F95D", "replicates, log10 nM": "4.31 / 3.87 / 2.41", "mean log10 Kd (nM)": "3.53", "empty controls": "4/9 (3.78)"}
{"changes": "R28V+A32K+Q96V", "replicates, log10 nM": "n.d. / 5.07 / n.d.", "mean log10 Kd (nM)": "5.07", "empty controls": "3/9 (3.41)"}
{"changes": "D25H+S88H+R90V", "replicates, log10 nM": "4.44 / 2.68 / 4.19", "mean log10 Kd (nM)": "3.77", "empty controls": "1/9 (3.77)"}
{"changes": "D25V+S55P+D91L", "replicates, log10 nM": "3.29 / 3.15 / 3.51", "mean log10 Kd (nM)": "3.32", "empty controls": "2/9 (4.99)"}
{"changes": "P54M+S55N+S93C", "replicates, log10 nM": "3.65 / n.d. / n.d.", "mean log10 Kd (nM)": "3.65", "empty controls": "4/9 (4.01)"}
{"changes": "N51W+N52Q+R90E", "replicates, log10 nM": "4.12 / 3.06 / n.d.", "mean log10 Kd (nM)": "3.59", "empty controls": "5/9 (3.74)"}
{"changes": "S26D+Y31L+N51F", "replicates, log10 nM": "2.95 / 2.52 / 2.85", "mean log10 Kd (nM)": "2.77", "empty controls": "1/9 (3.90)"}
{"changes": "N52I+S88L+G94E", "replicates, log10 nM": "2.16 / 2.39 / 1.78", "mean log10 Kd (nM)": "2.11", "empty controls": "3/9 (4.09)"}
{"changes": "R53T+P54V+F98N", "replicates, log10 nM": "2.75 / 2.23 / 2.47", "mean log10 Kd (nM)": "2.48", "empty controls": "3/9 (3.38)"}

Top 4 of the variants detected in all replicates, tightest first:

{"changes": "Y30G+N51A+S92V", "replicates, log10 nM": "1.23 / 1.17 / 0.62", "mean log10 Kd (nM)": "1.01", "empty controls": "1/9 (5.11)"}
{"changes": "Y30M+S89H+F95I", "replicates, log10 nM": "1.30 / 1.83 / 0.81", "mean log10 Kd (nM)": "1.31", "empty controls": "2/9 (4.77)"}
{"changes": "Y31P+S88V+Q96M", "replicates, log10 nM": "1.56 / 1.20 / 1.19", "mean log10 Kd (nM)": "1.32", "empty controls": "4/9 (4.59)"}
{"changes": "F98E", "replicates, log10 nM": "2.10 / 1.98 / 1.93", "mean log10 Kd (nM)": "2.00", "empty controls": "3/9 (4.01)"}